Data published in patent publication US8772480B2, “Inhibitors of PI3 kinase and/or mTOR” (priority 2009, dated 2014).

Each compound was assayed against mammalian target of rapamycin (mTOR) (Homo sapiens (Human), UniProt P42345). Details: read-out: mTOR IC50.
`C=Cc1cnc(Nc2ccc(OC)nc2)c(-c2nc(C)nc3[nH]cnc23)c1` [Example 73, N-(6-methoxypyridin-3-yl)-3-(2-methyl-9H-purin-6-yl)-5-vinylpyridin-2-amine] was tested, and the IC50 was > 10 µM.
With `CCc1cnc(Nc2ccc(OC)nc2)c(-c2nc(C)nc3[nH]cnc23)c1` [Example 74, 5-ethyl-N-(6-methoxypyridin-3-yl)-3-(2-methyl-9H-purin-6-yl)pyridin-2-amine] the IC50 was > 10 µM.
In the case of `COc1ccc(Nc2ncc(CCO)cc2-c2nc(C)nc3[nH]cnc23)cn1` [Example 75, 2-(6-(6-methoxypyridin-3-ylamino)-5-(2-methyl-9H-purin-6-yl)pyridin-3-yl)ethanol], the IC50 is reported as 0.248 µM.
`COc1ccc(Nc2ncc(CO)cc2-c2nc(C)nc3[nH]cnc23)cn1` [Example 76, (6-(6-Methoxypyridin-3-Ylamino)-5-(2-Methyl-9H-Purin-6-yl)Pyridin-3-yl)Methanol] gave an IC50 of 0.924 µM.
For `COc1cccc(NCc2cnc(Nc3ccc(OC)nc3)c(-c3nc(C)nc4[nH]cnc34)c2)c1` [Example 78, 5-((3-methoxyphenylamino)methyl)-N-(6-methoxypyridin-3-yl)-3-(2-methyl-9H-purin-6-yl)pyridin-2-amine], the IC50 was > 10 µM.
With `COc1ccc(Nc2ncc(CNc3cccnn3)cc2-c2nc(C)nc3[nH]cnc23)cn1` [Example 80, N-((6-(6-methoxypyridin-3-ylamino)-5-(2-methyl-9H-purin-6-yl)pyridin-3-yl)methyl)pyridazin-3-amine] the IC50 was > 10 µM.
For `COc1ccc(Nc2ncc(CNc3ccncc3)cc2-c2nc(C)nc3[nH]cnc23)cn1` [Example 81, N-(6-methoxypyridin-3-yl)-3-(2-methyl-9H-purin-6-yl)-5-((pyridin-4-ylamino)methyl)pyridin-2-amine], the IC50 was > 10 µM.
For `COc1ccc(Nc2ncc(CNc3ccccn3)cc2-c2nc(C)nc3[nH]cnc23)cn1` [Example 82, N-(6-methoxypyridin-3-yl)-3-(2-methyl-9H-purin-6-yl)-5-((pyridin-2-ylamino)methyl)pyridin-2-amine], the IC50 was > 10 µM.
`COc1ccc(Nc2ncc(CNc3ccccc3)cc2-c2nc(C)nc3[nH]cnc23)cn1` [Example 83, N-(6-methoxypyridin-3-yl)-3-(2-methyl-9H-purin-6-yl)-5-((phenylamino)methyl)pyridin-2-amine] was tested, and the IC50 was > 10 µM.
With `COc1ccc(Nc2ncc(CN3CCNCC3)cc2-c2nc(C)nc3[nH]cnc23)cn1` [Example 84, N-(6-methoxypyridin-3-yl)-3-(2-methyl-9H-purin-6-yl)-5-(piperazin-1-ylmethyl)pyridin-2-amine] the IC50 was > 10 µM.
For `COc1ccc(Nc2ncc(CN3CCN(S(C)(=O)=O)CC3)cc2-c2nc(C)nc3[nH]cnc23)cn1` [Example 85, N-(6-methoxypyridin-3-yl)-3-(2-methyl-9H-purin-6-yl)-5-((4-(methylsulfonyl)piperazin-1-yl)methyl)pyridin-2-amine], the IC50 was > 10 µM.
With `COC(=O)N1CCN(Cc2cnc(Nc3ccc(OC)nc3)c(-c3nc(C)nc4[nH]cnc34)c2)CC1` [Example 86, Methyl 4-((6-(6-Methoxypyridin-3-Ylamino)-5-(2-Methyl-9H-Purin-6-yl)Pyridin-3-yl)Methyl)Piperazine-1-Carboxylate] the IC50 was 0.346 µM.
`COc1ccc(Nc2ncc(CN3CCN(C(=O)N(C)C)CC3)cc2-c2nc(C)nc3[nH]cnc23)cn1` [Example 87, 4-((6-(6-Methoxypyridin-3-Ylamino)-5-(2-Methyl-9H-Purin-6-yl)Pyridin-3-yl)Methyl)-N,N-Dimethylpiperazine-1-Carboxamide] was tested, and the IC50 was 1.87 µM.
For `COc1ccc(Nc2ncc(CN3CCN(S(=O)(=O)N(C)C)CC3)cc2-c2nc(C)nc3[nH]cnc23)cn1` [Example 88, 4-((6-(6-Methoxypyridin-3-Ylamino)-5-(2-Methyl-9H-Purin-6-yl)Pyridin-3-yl)Methyl)-N,N-Dimethylpiperazine-1-Sulfonamide], the IC50 was > 10 µM.
For `COc1ccc(Nc2ncc(CN3CCN(C(C)=O)CC3)cc2-c2nc(C)nc3[nH]cnc23)cn1` [Example 89, 1-(4-((6-(6-methoxypyridin-3-ylamino)-5-(2-methyl-9H-purin-6-yl)pyridin-3-yl)methyl)piperazin-1-yl)ethanone], the IC50 was 0.612 µM.
For `COc1ccc(Nc2cnc(Nc3ccc(OC)nc3)c(-c3nc(C)nc4[nH]cnc34)c2)cc1` [Example 90, N5-(4-methoxyphenyl)-N2-(6-methoxypyridin-3-yl)-3-(2-methyl-9H-purin-6-yl)pyridine-2,5-diamine], the IC50 was 0.743 µM.
With `COc1ccc(Nc2ncc(NCc3ccccc3)cc2-c2nc(C)nc3[nH]cnc23)cn1` [Example 91, N5-benzyl-N2-(6-methoxypyridin-3-yl)-3-(2-methyl-9H-purin-6-yl)pyridine-2,5-diamine] the IC50 was > 10 µM.
Compound `COc1ccc(Nc2ncc(Nc3ccccc3)cc2-c2nc(C)nc3[nH]cnc23)cn1` [Example 92, N2-(6-methoxypyridin-3-yl)-3-(2-methyl-9H-purin-6-yl)-N-5-phenylpyridine-2,5-diamine] has an IC50 of 0.714 µM.
For `COCCNc1cnc(Nc2ccc(OC)nc2)c(-c2nc(C)nc3[nH]cnc23)c1` [Example 93, N5-(2-methoxyethyl)-N2-(6-methoxypyridin-3-yl)-3-(2-methyl-9H-purin-6-yl)pyridine-2,5-diamine], the IC50 was 3.54 µM.
`CCNc1cnc(Nc2ccc(OC)nc2)c(-c2nc(C)nc3[nH]cnc23)c1` [Example 94, N5-ethyl-N2-(6-methoxypyridin-3-yl)-3-(2-methyl-9H-purin-6-yl)pyridine-2,5-diamine] showed an IC50 of 4.14 µM.
With `COc1ccc(CNc2cnc(Nc3ccc(OC)nc3)c(-c3nc(C)nc4[nH]cnc34)c2)cc1` [Example 95, N5-(4-methoxybenzyl)-N2-(6-methoxypyridin-3-yl)-3-(2-methyl-9H-purin-6-yl)pyridine-2,5-diamine] the IC50 was > 10 µM.
`COc1ccc(Nc2ncc(N3CCOCC3)cc2-c2nc(C)nc3[nH]cnc23)cn1` [Example 97] was tested, and the IC50 was > 10 µM.
`COc1ccc(Nc2ncc(N3CCC(O)C3)cc2-c2nc(C)nc3[nH]cnc23)cn1` (stereo not shown) [Example 98, 1-(6-(6-Methoxypyridin-3-Ylamino)-5-(2-Methyl-9H-Purin-6-yl)Pyridin-3-yl)Pyrrolidin-3-ol] was tested, and the IC50 was > 10 µM.
Work on `COc1ccc(Nc2ncc(N3CCN(S(C)(=O)=O)CC3)cc2-c2nc(C)nc3[nH]cnc23)cn1` [Example 99, N-(6-Methoxypyridin-3-yl)-3-(2-Methyl-9H-Purin-6-yl)-5-(4-(Methylsulfonyl)Piperazin-1-yl)Pyridin-2-Amine] yielded an IC50 of 0.186 µM.
Work on `COc1ccc(Nc2ncc(N3CCC[C@H]3CO)cc2-c2nc(C)nc3[nH]cnc23)cn1` [Example 100, ((2S)-1-(6-(6-Methoxypyridin-3-Ylamino)-5-(2-Methyl-9H-Purin-6-yl)Pyridin-3-yl)Pyrrolidin-2-yl)Methanol] yielded an IC50 of 1.15 µM.
For `COc1ccc(Nc2ncc(N3CCC[C@@H]3CO)cc2-c2nc(C)nc3[nH]cnc23)cn1` [Example 101, ((2R)-1-(6-(6-Methoxypyridin-3-Ylamino)-5-(2-Methyl-9H-Purin-6-yl)Pyridin-3-yl)Pyrrolidin-2-yl)Methanol], the IC50 was 2.7 µM.
`CC(=O)Nc1ccc(Nc2ncccc2-c2nc(C)nc3[nH]cnc23)cc1` [Example 102, N-(4-(3-(2-methyl-9H-purin-6-yl)pyridin-2-ylamino)phenyl)acetamide] showed an IC50 of 0.035 µM.
Compound `COc1ccc(Nc2ncc(Cc3ccc(S(C)(=O)=O)cc3)cc2-c2nc(C)nc3[nH]cnc23)cn1` [Example 103, N-(6-methoxypyridin-3-yl)-3-(2-methyl-9H-purin-6-yl)-5-(4-(methylsulfonyl)benzyl)pyridin-2-amine] has an IC50 of 0.245 µM.
With `Cc1nc(-c2cc(Cc3ccc(S(C)(=O)=O)cc3)cnc2Nc2cccc3[nH]ncc23)c2nc[nH]c2n1` [Example 104, N-(3-(2-methyl-9H-purin-6-yl)-5-(4-(methylsulfonyl)benzyl)pyridin-2-yl)-1H-indazol-4-amine] the IC50 was > 10 µM.
For `CC(=O)Nc1ccc(Nc2ncc(Cc3ccc(S(C)(=O)=O)cc3)cc2-c2nc(C)nc3[nH]cnc23)cn1` [Example 105, N-(5-(3-(2-methyl-9H-purin-6-yl)-5-(4-(methylsulfonyl)benzyl)pyridin-2-ylamino)pyridin-2-yl)acetamide], the IC50 was 0.27 µM.
Work on `Cc1nc(-c2cc(Cc3ccc(S(C)(=O)=O)cc3)cnc2Nc2ccc(N)nc2)c2nc[nH]c2n1` [Example 106, N5-(3-(2-methyl-9H-purin-6-yl)-5-(4-(methylsulfonyl)benzyl)pyridin-2-yl)pyridine-2,5-diamine] yielded an IC50 of 0.084 µM.
`Cc1nc(N)cc(-c2cnccc2Nc2cccc3[nH]ncc23)n1` [Example 107, N-(3-(6-amino-2-methylpyrimidin-4-yl)pyridin-4-yl)-1H-indazol-4-amine] was tested, and the IC50 was > 50 µM.
`CC(=O)Nc1cc(-c2cnccc2Nc2cccc3[nH]ccc23)nc(C)n1` [Example 108, N-(6-(4-(1H-indol-4-ylamino)pyridin-3-yl)-2-methylpyrimidin-4-yl)acetamide] was tested, and the IC50 was > 50 µM.
In the case of `Cc1nc(N)cc(-c2cnccc2Nc2cccc3[nH]ccc23)n1` [Example 109, N-(3-(6-amino-2-methylpyrimidin-4-yl)pyridin-4-yl)-1H-indol-4-amine], the IC50 is reported as > 50 µM.
In the case of `Cc1nc(-c2cnccc2Nc2cccc3[nH]ncc23)c2nc[nH]c2n1` [Example 110, N-(3-(2-methyl-9H-purin-6-yl)pyridin-4-yl)-1H-indazol-4-amine], the IC50 is reported as > 10 µM.
For `COc1ccc(Nc2ccncc2-c2nc(C)nc3[nH]cnc23)cn1` [Example 111, 6-methoxy-N-(3-(2-methyl-9H-purin-6-yl)pyridin-4-yl)pyridin-3-amine], the IC50 was > 10 µM.
With `Cc1nc(N)cc(-c2nccnc2Nc2cccc3[nH]ncc23)n1` [Example 112, N-(3-(6-amino-2-methylpyrimidin-4-yl)pyrazin-2-yl)-1H-indazol-4-amine] the IC50 was > 10 µM.
In the case of `COc1ccc(Nc2nc3ccccc3cc2-c2nc(C)nc3[nH]cnc23)cn1` [Example 113, N-(6-Methoxypyridin-3-yl)-3-(2-Methyl-9H-Purin-6-yl)Quinolin-2-Amine], the IC50 is reported as > 10 µM.
With `COc1ccc(Nc2nccnc2-c2nc(C)nc(N)n2)cn1` [Example 114, 4-(3-(6-methoxypyridin-3-ylamino)pyrazin-2-yl)-6-methyl-1,3,5-triazin-2-amine] the IC50 was > 10 µM.
With `COc1ccc(Nc2cnccc2-c2nc(C)nc(N)n2)cn1` [Example 115, 4-(3-(6-methoxypyridin-3-ylamino)pyridin-4-yl)-6-methyl-1,3,5-triazin-2-amine] the IC50 was > 10 µM.
